Measured values: US7851630B2, “Hydronopol substituted benzimidazolone and quinazolinone derivatives as agonists on human ORL1 receptors” (dated 2010)

The chains behind the UniProt entries cited, without tags or fusion partners. Where a name states a change or a piece, a line headed by the entry shows the natural chain unless it says otherwise.
UniProt P41146: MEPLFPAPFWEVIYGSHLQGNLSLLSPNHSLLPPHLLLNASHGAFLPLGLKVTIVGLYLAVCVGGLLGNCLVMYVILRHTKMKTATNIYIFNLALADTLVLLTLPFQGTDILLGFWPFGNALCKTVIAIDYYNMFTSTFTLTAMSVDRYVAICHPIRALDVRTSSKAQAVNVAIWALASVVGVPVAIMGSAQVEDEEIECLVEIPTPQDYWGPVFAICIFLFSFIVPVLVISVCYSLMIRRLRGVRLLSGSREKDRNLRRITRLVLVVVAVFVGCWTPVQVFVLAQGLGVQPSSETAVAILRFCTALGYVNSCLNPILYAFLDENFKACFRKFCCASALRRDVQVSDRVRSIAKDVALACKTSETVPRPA

What was measured:
[1] = test system: conditioned ultrasonic distress vocalisation; conditions: intraperitoneal administration
ORL1 receptor = ORL1 receptor (Homo sapiens, UniProt P41146); test: In vitro ORL1 receptor agonism, cAMP assay

SMILES: CC1(C)[C@H]2CC[C@@H](CCN3CCC(N4C(=O)NCc5ccccc54)CC3)[C@@H]1C2
- In vivo agonism C.U.D.V. i.p. ED50 [1]: 7.4 mg/kg
- In vitro agonism cAMP assay pEC50 (ORL1 receptor): 8.5
